Test results taken from US10602680B2, “Method of internal seed disinfection by combining seed priming with vacuum infiltration” (priority 2014, dated 2020).

System: triploid watermelon seeds
Test: Phytotoxicity screening by vacuum infiltration followed by matrix priming
Settings: further screening using the same format; concentrations not given
Experimental: Step 110 involves choosing which species of seed will be sought to be disinfected. […] Thus, in step 130, a phytotoxicty screening is carried out on the chosen seeds using the chosen treatment. […] For example, the inventors screened the antibiotic Oxytetracycline using the method of adding chemicals to the water used in matrix priming (Eastin, J. A., 2000, U.S. Pat. No. 6,076,301) and the method of the present invention. Water containing 500 ppm of Oxytetracycline was used to prime triploid watermelon seeds using matrix priming. Further, the same seed was treated with vacuum infiltration using 500 ppm Oxytetracycline solutions for 6 hours, which was followed by a matrix priming using water. For a control, seed of the same lot was treated using vacuum infiltration with water, followed by matrix priming using water. Also, untreated seeds were preserved as an additional control.

For Piperacillin/tazobactam, the phytotoxicity was “no phytotoxic effects”.
